Here are results for 10 compounds from patent US20260116920A1, “HUMAN TRANSFERRIN RECEPTOR BINDING PEPTIDE” (PEPTIDREAM INC., priority 2021, published 2026).

Protein sequences, listed by entry. Tags and fused reporters are not part of them. Residues count along the entry.
UniProt P02786, 89-760 limits assumed: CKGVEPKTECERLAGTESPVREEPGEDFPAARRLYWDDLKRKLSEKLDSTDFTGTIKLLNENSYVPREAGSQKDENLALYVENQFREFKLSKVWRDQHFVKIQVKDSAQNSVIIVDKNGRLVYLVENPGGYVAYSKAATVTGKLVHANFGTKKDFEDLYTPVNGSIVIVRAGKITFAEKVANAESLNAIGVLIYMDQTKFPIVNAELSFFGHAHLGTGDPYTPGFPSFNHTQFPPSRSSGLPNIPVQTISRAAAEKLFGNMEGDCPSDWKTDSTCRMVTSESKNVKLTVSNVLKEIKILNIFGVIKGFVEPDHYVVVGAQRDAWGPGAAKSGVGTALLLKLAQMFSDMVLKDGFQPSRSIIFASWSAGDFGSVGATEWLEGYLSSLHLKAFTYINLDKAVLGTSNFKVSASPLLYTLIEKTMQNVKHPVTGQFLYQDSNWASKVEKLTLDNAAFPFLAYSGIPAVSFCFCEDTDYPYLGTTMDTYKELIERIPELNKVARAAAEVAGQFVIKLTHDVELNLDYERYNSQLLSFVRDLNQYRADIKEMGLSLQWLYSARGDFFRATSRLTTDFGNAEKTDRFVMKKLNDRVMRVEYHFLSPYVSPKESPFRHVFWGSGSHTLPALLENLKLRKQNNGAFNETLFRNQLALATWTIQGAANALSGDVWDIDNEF

The experiment concerns the target T1, human transferrin receptor (hTfR) (Homo sapiens, UniProt P02786).
T1 construct: made in house
The experiment can be described thus: Evaluation of molecular interaction between transferrin receptor (hTfR) and peptide using surface plasmon resonance (SPR). The format is binding. The essentials:
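Recombinant human TfR dimer (0.5 μM) was captured on a Ni-charged NTA chip and amine-coupled with EDC/NHS, then ethanolamine-capped. Peptides at 5–100 nM in HEPES pH 8.0 buffer with 150 mM NaCl, 0.05% Tween 20, 0.1% BSA and 1.0% DMSO were run by single-cycle kinetics; KD came from least-squares curve fitting.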
For orientation: SPR reads the build-up and loss of mass on a sensor chip optically.

[1] abbreviates: KD class of the peptide with linker for hTfR by surface plasmon resonance, read-out: SPR.
The mark [2] stands for this setting: KD class of peptide with linker binding to hTfR, by SPR (TABLE 5), read-out: SPR.
The mark [3] stands for this setting: SPR, immobilized recombinant hTfR, single-cycle kinetics, substitution variants of 894_3151, read-out: KD.

Molecules are shown by their SMILES. Read-outs that look alike come from different tables or passages of the source.

For the compound `CC[C@H](C)[C@@H]1NC(=O)[C@H](Cc2ccc(OCC(=O)O)cc2)NC(=O)[C@H](Cc2ccc(O)cc2)NC(=O)[C@H](CC(N)=O)NC(=O)[C@H](Cc2cn(CC(=O)O)c3ccccc23)NC(=O)[C@H](C(C)C)NC(=O)[C@H](Cc2cccc(Cl)c2)N(C)C(=O)[C@H](C(C)C)NC(=O)[C@H](C)NC(=O)CSC[C@@H](C(=O)NCC(=O)N[C@H](CO)C(=O)N[C@H](CO)C(=O)N[C@H](CO)C(=O)N[C@H](CO)C(=O)N[C@H](CO)C(=O)N[C@@H](CCCCN)C(N)=O)NC(=O)[C@H](Cc2ccc(O)cc2)N(C)C(=O)[C@H](Cc2cccc(C(=O)O)c2)NC(=O)[C@H](CCCCN2CCOCC2)NC(=O)[C@H](CCCCN2CCOCC2)NC(=O)[C@H]([C@@H](C)CC)NC1=O` [compound 283], the Kd under setting [1] lay within 1 to 100 nM. `CC[C@H](C)[C@@H]1NC(=O)[C@H](Cc2ccc(OCC(=O)O)cc2)NC(=O)[C@H](Cc2ccc(N)nc2)NC(=O)[C@H](CC(N)=O)NC(=O)[C@H](Cc2c[nH]c3ccccc23)NC(=O)[C@H](C(C)C)NC(=O)[C@H](Cc2cccc(Cl)c2)N(C)C(=O)[C@H](C(C)C)NC(=O)[C@H](C)NC(=O)CSC[C@@H](C(=O)NCC(=O)N[C@H](CO)C(=O)N[C@H](CO)C(=O)N[C@H](CO)C(=O)N[C@H](CO)C(=O)N[C@H](CCC(=O)O)C(=O)N[C@H](CCCCN)C(N)=O)NC(=O)[C@H](Cc2ccc(O)cc2)N(C)C(=O)[C@H](Cc2cccc(C(=O)O)c2)NC(=O)[C@H](CCCNC(=N)N)NC(=O)[C@H](CCC(=O)NCCOCCOCCOCCOCCOCCOCCOCCOC)NC(=O)[C@H]([C@@H](C)CC)NC1=O` [compound 344]: the Kd under setting [2] is 1 to 100 nM. On to `CC[C@H](C)[C@@H]1NC(=O)[C@H](Cc2ccc(O)cc2)NC(=O)[C@H](Cc2ccc(O)cc2)NC(=O)[C@H](CC(N)=O)NC(=O)[C@H](Cc2c[nH]c3ccccc23)NC(=O)[C@H](C(C)C)NC(=O)[C@H](Cc2ccccc2)N(C)C(=O)[C@H](C(C)C)NC(=O)[C@H](Cc2ccccc2)NC(=O)CSC[C@@H](C(=O)NCCOCCOCCOCCOCCOCCOCCOCCOCCOCCOCCOCCOCCC(N)=O)NC(=O)[C@H](Cc2ccc(O)cc2)N(C)C(=O)[C@H](Cc2ccc(O)cc2)NC(=O)[C@H](CCCNC(=N)N)NC(=O)[C@H](CCCNC(=N)N)NC(=O)[C@H]([C@@H](C)CC)NC1=O` [compound 254], for which the Kd under setting [3] came out at 110 nM. `CC[C@H](C)[C@@H]1NC(=O)[C@H](Cc2ccc(OCC(=O)O)cc2)NC(=O)[C@H](Cc2ccc(N)nc2)NC(=O)[C@H](CC(N)=O)NC(=O)[C@H](Cc2cn(CC(=O)O)c3ccccc23)NC(=O)[C@H](C(C)C)NC(=O)[C@H](Cc2cccc(Cl)c2)N(C)C(=O)[C@H](C(C)C)NC(=O)[C@H](C)NC(=O)CSC[C@@H](C(=O)NCC(=O)N[C@@H](CCCCN=[N+]=[N-])C(N)=O)NC(=O)[C@H](Cc2ccc(O)cc2)N(C)C(=O)[C@H](Cc2ccncc2)NC(=O)[C@H](CCCNC(=N)N)NC(=O)[C@H](CCC(=O)NCCOCCOCCOCCOCCOCCOCCOCCOC)NC(=O)[C@H]([C@@H](C)CC)NC1=O` [compound 304]: under setting [1], the Kd was in the range of 1 to 100 nM. The compound `CC[C@H](C)[C@@H]1NC(=O)[C@H](Cc2ccc(OCC(=O)O)cc2)NC(=O)[C@H](Cc2ccc(O)cc2)NC(=O)[C@H](CC(N)=O)NC(=O)[C@H](Cc2cn(CC(=O)O)c3ccccc23)NC(=O)[C@H](C(C)C)NC(=O)[C@H](Cc2cccc(Cl)c2)N(C)C(=O)[C@H](C(C)C)NC(=O)[C@H](C)NC(=O)CSC[C@@H](C(=O)NCC(=O)NCC(=O)NCC(=O)NCC(=O)N[C@@H](CO)C(=O)N[C@@H](CO)C(=O)N[C@@H](CCCCNC(=O)C2CCC(CN3C(=O)C=CC3=O)CC2)C(N)=O)NC(=O)[C@H](Cc2ccc(O)cc2)N(C)C(=O)[C@H](Cc2cccc(C(=O)O)c2)NC(=O)[C@H](CCCCN2CCOCC2)NC(=O)[C@H](CCCCN2CCOCC2)NC(=O)[C@H]([C@@H](C)CC)NC1=O` (stereo partly shown) [compound 293] gave a Kd (SPR, KD class of the peptide with linker for hTfR by surface plasmon resonance) of 1 to 100 nM. For `CC[C@H](C)[C@@H]1NC(=O)[C@H](Cc2ccc(OCC(=O)O)cc2)NC(=O)[C@H](Cc2ccc(N)nc2)NC(=O)[C@H](CC(N)=O)NC(=O)[C@H](Cc2cn(CC(=O)O)c3ccccc23)NC(=O)[C@H](C(C)C)NC(=O)[C@H](Cc2cccc(Cl)c2)N(C)C(=O)[C@H](C(C)C)NC(=O)[C@H](C)NC(=O)CSC[C@@H](C(=O)NCC(=O)N[C@@H](CCCCN=[N+]=[N-])C(N)=O)NC(=O)[C@H](Cc2ccc(O)cc2)N(C)C(=O)[C@H](Cc2ccncc2)NC(=O)[C@H](CCCNC(=N)N)NC(=O)[C@H](CCCNC(=N)N)NC(=O)[C@H]([C@@H](C)CC)NC1=O` [compound 303], the Kd under setting [1] lay in the range of 1 to 100 nM. Regarding `CC[C@H](C)[C@@H]1NC(=O)[C@H](Cc2ccc(O)cc2)NC(=O)[C@H](Cc2ccc(O)cc2)NC(=O)[C@H](C)NC(=O)[C@H](Cc2c[nH]c3ccccc23)NC(=O)[C@H](C(C)C)NC(=O)[C@H](Cc2ccccc2)N(C)C(=O)[C@H](C(C)C)NC(=O)[C@H](C)NC(=O)CSC[C@@H](C(=O)NCCOCCOCCOCCOCCOCCOCCOCCOCCOCCOCCOCCOCCC(N)=O)NC(=O)[C@H](Cc2ccc(O)cc2)N(C)C(=O)[C@H](Cc2ccc(O)cc2)NC(=O)[C@H](CCCNC(=N)N)NC(=O)[C@H](CCCNC(=N)N)NC(=O)[C@H]([C@@H](C)CC)NC1=O` [compound 261], the Kd under setting [3] came to 279 nM.

As for `CC[C@H](C)[C@@H]1NC(=O)[C@H](Cc2ccc(O)cc2)NC(=O)[C@H](Cc2ccc(O)cc2)NC(=O)[C@H](CC(N)=O)NC(=O)[C@H](Cc2c[nH]c3ccccc23)N(C)C(=O)[C@H](C(C)C)NC(=O)[C@H](Cc2ccccc2)N(C)C(=O)[C@H](C(C)C)NC(=O)[C@H](C)NC(=O)CSC[C@@H](C(=O)NCC(=O)N[C@@H](CS)C(N)=O)NC(=O)[C@H](Cc2ccc(O)cc2)N(C)C(=O)[C@H](Cc2ccc(O)cc2)NC(=O)[C@H](CCCNC(=N)N)NC(=O)[C@H](CCCCN)NC(=O)[C@H]([C@@H](C)CC)NC1=O` [compound 267], the Kd under setting [1] is 1 to 100 nM. Consider `CC[C@H](C)[C@@H]1NC(=O)[C@H](Cc2ccc(OCC(=O)O)cc2)NC(=O)[C@H](Cc2ccc(O)cc2)NC(=O)[C@H](CC(N)=O)NC(=O)[C@H](Cc2cn(CC(=O)O)c3ccccc23)NC(=O)[C@H](C(C)C)NC(=O)[C@H](Cc2cccc(Cl)c2)N(C)C(=O)[C@H](C(C)C)NC(=O)[C@H](C)NC(=O)CSC[C@@H](C(=O)NCC(=O)N[C@H](CO)C(=O)N[C@H](CO)C(=O)N[C@H](CO)C(=O)N[C@H](CCC(=O)O)C(=O)N[C@H](CO)C(=O)N[C@@H](CCCCNC(C)=O)C(N)=O)NC(=O)[C@H](Cc2ccc(O)cc2)N(C)C(=O)[C@H](Cc2ccccc2)NC(=O)[C@H](CCCNC(=N)N)NC(=O)[C@H](CCCNC(=N)N)NC(=O)[C@H]([C@@H](C)CC)NC1=O` [compound 324], for which the Kd under setting [2] lay within 1 to 100 nM. As for `CC[C@H](C)[C@@H]1NC(=O)[C@H](Cc2ccc(O)cc2)NC(=O)[C@H](Cc2ccc(O)cc2)NC(=O)[C@H](CC(N)=O)NC(=O)[C@H](Cc2c[nH]c3ccccc23)N(C)C(=O)[C@H](C(C)C)NC(=O)[C@H](Cc2ccccc2)N(C)C(=O)[C@H](C(C)C)NC(=O)[C@H](C)NC(=O)CSC[C@@H](C(=O)NCC(=O)NCC(=O)N[C@H](CCCNC(=N)N)C(=O)NCC(=O)N[C@H](CCCNC(=N)N)C(=O)N[C@H](CO)C(=O)N[C@@H](CCCCN=[N+]=[N-])C(N)=O)NC(=O)[C@H](Cc2ccc(O)cc2)N(C)C(=O)[C@H](Cc2ccc(O)cc2)NC(=O)[C@H](CCCNC(=N)N)NC(=O)[C@H](CCCCN)NC(=O)[C@H]([C@@H](C)CC)NC1=O` [compound 274], the Kd under setting [1] lay in the range of 1 to 100 nM.
